Test results reported in the CheMixHub viscosity set.

Assays:
[1] = xn = mol fraction of the nth substance listed

CCCCOCCCC + CCCCCCCC
[1], 101.3 kPa
Details	viscosity [mPa·s]
293.15 K, x1 = 0.057	0.544
293.15 K, x1 = 0.1118	0.55
293.15 K, x1 = 0.1947	0.56
293.15 K, x1 = 0.2718	0.571
293.15 K, x1 = 0.3576	0.582
293.15 K, x1 = 0.4202	0.592
293.15 K, x1 = 0.4966	0.603
293.15 K, x1 = 0.5465	0.61
293.15 K, x1 = 0.581	0.616
293.15 K, x1 = 0.6246	0.623
293.15 K, x1 = 0.7272	0.64
293.15 K, x1 = 0.8102	0.656
293.15 K, x1 = 0.8957	0.67
293.15 K, x1 = 0.9125	0.672
293.15 K, x1 = 0.9514	0.677
298.15 K, x1 = 0.057	0.504
298.15 K, x1 = 0.1118	0.51
298.15 K, x1 = 0.1947	0.52
298.15 K, x1 = 0.2718	0.53
298.15 K, x1 = 0.3576	0.54
298.15 K, x1 = 0.4502	0.551
298.15 K, x1 = 0.4966	0.557
298.15 K, x1 = 0.5465	0.564
298.15 K, x1 = 0.581	0.569
298.15 K, x1 = 0.6246	0.574
298.15 K, x1 = 0.7272	0.589
298.15 K, x1 = 0.8102	0.605
298.15 K, x1 = 0.8957	0.619
298.15 K, x1 = 0.9125	0.624
298.15 K, x1 = 0.9514	0.634
303.15 K, x1 = 0.057	0.481
303.15 K, x1 = 0.1118	0.486
303.15 K, x1 = 0.1947	0.495
303.15 K, x1 = 0.2718	0.503
303.15 K, x1 = 0.3576	0.513
303.15 K, x1 = 0.4502	0.524
303.15 K, x1 = 0.4966	0.53
303.15 K, x1 = 0.5465	0.537
303.15 K, x1 = 0.581	0.543
303.15 K, x1 = 0.6246	0.547
303.15 K, x1 = 0.7272	0.561
303.15 K, x1 = 0.8102	0.573
303.15 K, x1 = 0.8957	0.585
303.15 K, x1 = 0.9125	0.588
303.15 K, x1 = 0.9514	0.593
308.15 K, x1 = 0.0342	0.452
308.15 K, x1 = 0.1439	0.461
308.15 K, x1 = 0.1779	0.465
308.15 K, x1 = 0.3314	0.481
308.15 K, x1 = 0.4037	0.489
308.15 K, x1 = 0.4461	0.493
308.15 K, x1 = 0.4584	0.495
308.15 K, x1 = 0.5005	0.499
308.15 K, x1 = 0.6127	0.513
308.15 K, x1 = 0.6653	0.519
308.15 K, x1 = 0.7483	0.529
308.15 K, x1 = 0.8216	0.539
308.15 K, x1 = 0.9086	0.551
308.15 K, x1 = 0.9771	0.56

CCCCOCCCC + CCOC(=O)OCC
viscosity [mPa·s], [1], 100 kPa
Details	x2 = 0.1008	x2 = 0.197	x2 = 0.3057	x2 = 0.4036	x2 = 0.5	x2 = 0.6003	x2 = 0.7012	x2 = 0.8002	x2 = 0.9007
303.15 K	0.603	0.603	0.606	0.611	0.618	0.628	0.64	0.657	0.676
308.15 K	0.563	0.562	0.566	0.571	0.578	0.588	0.6	0.616	0.636
313.15 K	0.524	0.525	0.528	0.533	0.541	0.551	0.563	0.578	0.598

CCCCOCCCC + CCC(C)=O
viscosity [mPa·s], [1], 101.3 kPa
Details	x2 = 0.1005	x2 = 0.2	x2 = 0.3	x2 = 0.4	x2 = 0.5	x2 = 0.6	x2 = 0.7	x2 = 0.8002	x2 = 0.8998
303.15 K	0.6078	0.5656	0.5411	0.5123	0.4882	0.4677	0.448	0.433	0.4036
313.15 K	0.5347	0.5046	0.4801	0.4584	0.4403	0.4254	0.4039	0.392	0.3713
323.15 K	0.4826	0.4547	0.4348	0.4173	0.398	0.3829	0.3693	0.3587	0.3465

CCCCOCCCC + CCCCCCCCC
viscosity [mPa·s], [1], 101 kPa
Details	x1 = 0.1048	x1 = 0.2085	x1 = 0.3111	x1 = 0.4126	x1 = 0.503	x1 = 0.6124	x1 = 0.7108	x1 = 0.904
298.15 K	0.6536	0.6484	0.6431	0.6401	0.6389	0.639	0.6411	0.6464
308.15 K	0.5796	0.5773	0.5746	0.5742	0.5749	0.578	0.5818	0.5882
318.15 K	0.5114	0.5101	0.5076	0.507	0.5078	0.5107	0.513	0.5185

CCCCOCCCC + CCCCCCCCCCCC
viscosity [mPa·s], [1], 101 kPa
Details	x1 = 0.1043	x1 = 0.2032	x1 = 0.3143	x1 = 0.4082	x1 = 0.5025	x1 = 0.6112	x1 = 0.7132	x1 = 0.8049	x1 = 0.9036
298.15 K	1.218	1.135	1.05	0.9785	0.9172	0.8492	0.7899	0.7407	0.6887
308.15 K	1.033	0.9683	0.8991	0.8419	0.7943	0.7421	0.6971	0.6593	0.6193
318.15 K	0.878	0.8239	0.7644	0.7209	0.6809	0.6398	0.6037	0.5754	0.5451

CCCCOCCCC + Cc1ccc(C)cc1
viscosity [mPa·s], [1], 101.32 kPa
Details	298.15 K	308.15 K
x1 = 0.055	0.612	0.54
x1 = 0.1513	0.614	0.543
x1 = 0.2503	0.617	0.549
x1 = 0.3493	0.621	0.554
x1 = 0.4516	0.626	0.561
x1 = 0.5033	0.629	0.565
x1 = 0.5712	0.633	0.571
x1 = 0.628	0.637	0.575
x1 = 0.7507	0.641	0.583
x1 = 0.8517	0.644	0.587
x1 = 0.9496	0.643	0.589

CCCCOCCCC + Cc1ccccc1
viscosity [mPa·s], [1], 101.32 kPa
Details	298.15 K	308.15 K
x1 = 0.0549	0.554	0.502
x1 = 0.1507	0.561	0.508
x1 = 0.249	0.567	0.514
x1 = 0.351	0.574	0.52
x1 = 0.4355	0.58	0.527
x1 = 0.4982	0.586	0.533
x1 = 0.5113	0.588	0.534
x1 = 0.6473	0.601	0.548
x1 = 0.7525	0.612	0.56
x1 = 0.8513	0.625	0.572
x1 = 0.9539	0.635	0.585

CCCCOCCCC + c1ccccc1
viscosity [mPa·s], [1], 101.32 kPa
Details	298.15 K	308.15 K
x1 = 0.0544	0.602	0.526
x1 = 0.1492	0.602	0.528
x1 = 0.2502	0.601	0.529
x1 = 0.3554	0.603	0.533
x1 = 0.4494	0.605	0.537
x1 = 0.5006	0.608	0.54
x1 = 0.5508	0.609	0.543
x1 = 0.6458	0.614	0.55
x1 = 0.7543	0.622	0.56
x1 = 0.854	0.629	0.571
x1 = 0.9502	0.637	0.583

CCCCOCCCC + CCCCCCCCCC
viscosity [mPa·s], [1], 101 kPa
Details	x1 = 0.1132	x1 = 0.2231	x1 = 0.3298	x1 = 0.4079	x1 = 0.5096	x1 = 0.6084	x1 = 0.7046	x1 = 0.7982	x1 = 0.9118
298.15 K	0.8032	0.7734	0.7483	0.7282	0.7089	0.6932	0.6773	0.6663	0.6562
308.15 K	0.709	0.6856	0.6645	0.6499	0.6336	0.6207	0.6106	0.604	0.5957
318.15 K	0.603	0.5865	0.5701	0.5586	0.5456	0.537	0.533	0.5289	0.5222

CCCCOCCCC + CCCO
[1], 101.3 kPa
Details	viscosity [mPa·s]
293.15 K, x1 = 0.0203	2.009
293.15 K, x1 = 0.0485	1.89
293.15 K, x1 = 0.0957	1.66
293.15 K, x1 = 0.1451	1.49
293.15 K, x1 = 0.2035	1.309
293.15 K, x1 = 0.2427	1.24
293.15 K, x1 = 0.2845	1.147
293.15 K, x1 = 0.3218	1.085
293.15 K, x1 = 0.3412	1.055
293.15 K, x1 = 0.3848	0.988
293.15 K, x1 = 0.4397	0.932
293.15 K, x1 = 0.5319	0.852
293.15 K, x1 = 0.6752	0.764
293.15 K, x1 = 0.8209	0.709
293.15 K, x1 = 0.8793	0.691
298.15 K, x1 = 0.0203	1.8
298.15 K, x1 = 0.0485	1.698
298.15 K, x1 = 0.0957	1.498
298.15 K, x1 = 0.1451	1.351
298.15 K, x1 = 0.2035	1.194
298.15 K, x1 = 0.2427	1.117
298.15 K, x1 = 0.2845	1.049
298.15 K, x1 = 0.3412	0.96
298.15 K, x1 = 0.3848	0.912
298.15 K, x1 = 0.4397	0.866
298.15 K, x1 = 0.5319	0.796
298.15 K, x1 = 0.6752	0.721
298.15 K, x1 = 0.8209	0.667
298.15 K, x1 = 0.8793	0.65
298.15 K, x2 = 0.052	0.621
298.15 K, x2 = 0.092	0.628
298.15 K, x2 = 0.201	0.655
298.15 K, x2 = 0.296	0.689
298.15 K, x2 = 0.398	0.74
298.15 K, x2 = 0.486	0.805
298.15 K, x2 = 0.591	0.903
298.15 K, x2 = 0.695	1.039
298.15 K, x2 = 0.808	1.249
298.15 K, x2 = 0.903	1.522
298.15 K, x2 = 0.956	1.729
303.15 K, x1 = 0.0203	1.628
303.15 K, x1 = 0.0485	1.507
303.15 K, x1 = 0.0957	1.335
303.15 K, x1 = 0.1451	1.201
303.15 K, x1 = 0.2035	1.082
303.15 K, x1 = 0.2427	1.012
303.15 K, x1 = 0.2845	0.953
303.15 K, x1 = 0.3218	0.907
303.15 K, x1 = 0.3412	0.885
303.15 K, x1 = 0.3848	0.841
303.15 K, x1 = 0.4397	0.793
303.15 K, x1 = 0.5319	0.728
303.15 K, x1 = 0.6752	0.662
303.15 K, x1 = 0.8209	0.616
303.15 K, x1 = 0.8793	0.602
308.15 K, x1 = 0.0677	1.282
308.15 K, x1 = 0.1252	1.129
308.15 K, x1 = 0.1601	1.052
308.15 K, x1 = 0.2091	0.963
308.15 K, x1 = 0.2583	0.89
308.15 K, x1 = 0.3281	0.812
308.15 K, x1 = 0.3754	0.771
308.15 K, x1 = 0.426	0.735
308.15 K, x1 = 0.482	0.703
308.15 K, x1 = 0.5396	0.675
308.15 K, x1 = 0.6388	0.635
308.15 K, x1 = 0.7528	0.604
308.15 K, x1 = 0.8736	0.564
308.15 K, x1 = 0.9591	0.555

CCCCOCCCC
viscosity [mPa·s]
Details	298.15 K	308.15 K	313.15 K	318.15 K	323.15 K
101 kPa	0.6501	0.5918	–	0.5206	–
101.3 kPa	–	–	0.5715	–	0.5079
